This note sets out measurements from patent publication US20240317712A1, “[…] DERIVATIVES AS INHIBITORS OF […]-PEPTIDE CYCLOTRANSFERASE AND […]-PEPTIDE CYCLOTRANSFERASE LIKE PROTEIN” (Boehringer Ingelheim International GmbH, priority 2023, published 2024).

In this series the test system is Caco-2 cells. Briefly: Assay C: Permeability in CACO-2 cells. It is filed as in vitro ADME. As to conditions: pH 7.2.

The term Papp A→B denotes the apparent permeability from the apical to the basolateral side of a cell layer. A higher Papp A→B goes with fast passage. In turn, `Cn1cnnc1C1CCN(S(=O)(=O)c2cccc(Nc3ccc(OCc4ccccc4)nc3)c2)CC1` gave a Papp A→B of 3.5 ×10⁻⁶ cm/s.
Consider `Cn1cnnc1C1CCN(S(=O)(=O)c2cccc(Nc3ccc(F)nc3)c2)CC1`, for which the “Permeability A-B” value (Caco-2, apical to basolateral) is reported as 0.7 10^−6 cm/s.
